Reference: patent US12465652B2 (AMGEN INC., priority 2017, dated 2025)

Amino acid sequences for entries named in this document (tags omitted). Residues count along the entry.
UniProt P43220, 24-463 limits assumed: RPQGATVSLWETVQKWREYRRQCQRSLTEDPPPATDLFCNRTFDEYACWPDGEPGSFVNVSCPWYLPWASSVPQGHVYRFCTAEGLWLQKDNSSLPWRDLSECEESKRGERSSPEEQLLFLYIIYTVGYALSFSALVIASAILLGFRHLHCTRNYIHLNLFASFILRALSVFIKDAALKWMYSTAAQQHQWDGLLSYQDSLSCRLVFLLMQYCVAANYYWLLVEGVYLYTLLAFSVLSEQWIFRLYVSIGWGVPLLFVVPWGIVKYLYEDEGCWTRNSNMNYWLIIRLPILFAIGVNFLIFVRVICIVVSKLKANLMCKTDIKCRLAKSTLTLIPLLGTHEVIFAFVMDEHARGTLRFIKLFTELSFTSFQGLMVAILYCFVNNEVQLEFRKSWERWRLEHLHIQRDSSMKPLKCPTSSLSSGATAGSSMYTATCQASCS

Tests used:
hGLP1R = hGLP1R (Homo sapiens, UniProt P43220); experiment: hGLP1R EC50 (pM)
Source text: Table printed on a drawing sheet, FIG. 2
Head of the field: hGLP1R EC50 (pM)
Where the first naming reader finds the target: head: hGLP1R EC50 (pM)

human GLP-IR [1] = molecular target: T1, human GLP-IR (Homo sapiens, UniProt P43220); experiment: GLP1 activity | EC50 (pM)
Source text: Where the first naming reader finds the target: passage: CHOK1 cells stably expressing the human GLP-IR were used to measure peptide or recombinant fusion-induced cAMP production

human GLP-IR [2] = molecular target: T1, human GLP-IR; experiment: GLP1 activity | EC50 (M)
Source text: Table printed on a drawing sheet, FIG. 1A Head of the field: GLP1 activity | EC50 (M) The patent's description of the figure: FIG. 1A-1B: Synthetic Peptides (FIG. 1A discloses SEQ ID NOS 3948 and 3275-3298 and FIG. 1B discloses SEQ ID NOS 3948 and 3299-3302, all respectively, in order of appearance) First copying reader's note: The first head row prints a reference sequence (residues at positions 7-35) above the position numbers; two fully empty rows separate groups of peptides. Where the first naming reader finds the target: passage: CHOK1 cells stably expressing the human GLP-IR were used to measure peptide or recombinant fusion-induced cAMP production

Row | SMILES | EC50 (hGLP1R) | EC50 (human GLP-IR [2]) | also measured
1 | CC[C@H](C)[C@H](NC(=O)[C@H](Cc1ccccc1)NC(=O)[C@H](CCC(=O)O)NC(=O)[C@H](CCCCN)NC(=O)[C@H](C)NC(=O)[C@H](C)NC(=O)[C@H](CCC(N)=O)NC(=O)CNC(=O)[C@H](CCC(=O)O)NC(=O)[C@H](CC(C)C)NC(=O)[C@H](Cc1ccc(O)cc1)NC(=O)[C@H](CO)NC(=O)[C@H](CO)NC(=O)[C@@H](NC(=O)[C@H](CC(=O)O)NC(=O)[C@H](CO)NC(=O)[C@@H](NC(=O)[C@H](Cc1ccccc1)NC(=O)[C@@H](NC(=O)CNC(=O)[C@H](CCC(=O)O)NC(=O)[C@H](C)N)[C@@H](C)O)[C@@H](C)O)C(C)C)C(=O)N[C@@H](C)C(=O)N[C@@H](Cc1c[nH]c2ccccc12)C(=O)N[C@@H](CC(C)C)C(=O)N[C@H](C(=O)N[C@@H](CCCCN)C(=O)NCC(=O)N[C@@H](CCCNC(=N)N)C(=O)NCC(=O)O)C(C)C [3161005#1, AEGTFTSDVSSYLEGQAAKEFIAWLVKGRG] | 3 nM |  | 
2 | CC[C@H](C)[C@H](NC(=O)[C@H](Cc1ccccc1)NC(=O)[C@H](CCC(=O)O)NC(=O)[C@H](CCCCN)NC(=O)[C@H](C)NC(=O)[C@H](C)NC(=O)[C@H](CCC(N)=O)NC(=O)CNC(=O)[C@H](CCC(=O)O)NC(=O)[C@H](CC(C)C)NC(=O)[C@H](Cc1ccc(O)cc1)NC(=O)[C@H](CO)NC(=O)[C@H](CO)NC(=O)[C@@H](NC(=O)[C@H](CC(=O)O)NC(=O)[C@H](CO)NC(=O)[C@@H](NC(=O)[C@H](Cc1ccccc1)NC(=O)[C@@H](NC(=O)CNC(=O)[C@@H](N)CCC(=O)O)[C@@H](C)O)[C@@H](C)O)C(C)C)C(=O)N[C@@H](C)C(=O)N[C@@H](Cc1c[nH]c2ccccc12)C(=O)N[C@@H](CC(C)C)C(=O)N[C@H](C(=O)N[C@@H](CCCCN)C(=O)NCC(=O)N[C@@H](CCCNC(=N)N)C(=O)NCC(=O)O)C(C)C [3161006#1, EGTFTSDVSSYLEGQAAKEFIAWLVKGRG] | 40 nM |  | 
3 | CC[C@H](C)[C@H](NC(=O)[C@H](Cc1ccccc1)NC(=O)[C@H](CCC(=O)O)NC(=O)[C@H](CCCCN)NC(=O)[C@H](C)NC(=O)[C@H](C)NC(=O)[C@H](CCC(N)=O)NC(=O)CNC(=O)[C@H](CCC(=O)O)NC(=O)[C@H](CC(C)C)NC(=O)[C@H](Cc1ccc(O)cc1)NC(=O)[C@H](CO)NC(=O)[C@H](CO)NC(=O)[C@@H](NC(=O)[C@H](CC(=O)O)NC(=O)[C@H](CO)NC(=O)[C@@H](NC(=O)[C@H](Cc1ccccc1)NC(=O)[C@@H](NC(=O)CNC(=O)[C@H](CCC(N)=O)NC(=O)CNC(=O)[C@@H](N)Cc1c[nH]cn1)[C@@H](C)O)[C@@H](C)O)C(C)C)C(=O)N[C@@H](C)C(=O)N[C@@H](Cc1c[nH]c2ccccc12)C(=O)N[C@@H](CC(C)C)C(=O)N[C@H](C(=O)N[C@@H](CCCCN)C(=O)NCC(=O)N[C@@H](CCCNC(=N)N)C(=O)NCC(=O)O)C(C)C [3161012#1, HGQGTFTSDVSSYLEGQAAKEFIAWLVKGRG] |  |  | EC50 (human GLP-IR [1]): 4.1 pM
4 | CC[C@H](C)[C@H](NC(=O)[C@H](Cc1ccccc1)NC(=O)[C@H](CCC(=O)O)NC(=O)[C@H](CCCCN)NC(=O)[C@H](C)NC(=O)[C@H](C)NC(=O)[C@H](CCC(N)=O)NC(=O)CNC(=O)[C@H](CCC(=O)O)NC(=O)[C@H](CC(C)C)NC(=O)[C@H](Cc1ccc(O)cc1)NC(=O)[C@H](CO)NC(=O)[C@H](CO)NC(=O)[C@@H](NC(=O)[C@H](CC(=O)O)NC(=O)[C@H](CO)NC(=O)[C@@H](NC(=O)[C@H](Cc1ccccc1)NC(=O)[C@@H](NC(=O)CNC(=O)[C@H](CCCCN)NC(=O)CNC(=O)[C@@H](N)Cc1c[nH]cn1)[C@@H](C)O)[C@@H](C)O)C(C)C)C(=O)N[C@@H](C)C(=O)N[C@@H](Cc1c[nH]c2ccccc12)C(=O)N[C@@H](CC(C)C)C(=O)N[C@H](C(=O)N[C@@H](CCCCN)C(=O)NCC(=O)O)C(C)C [3166742#1, HGKGTFTSDVSSYLEGQAAKEFIAWLVKG] |  | 6.07 nM | 
5 | CC[C@H](C)[C@H](NC(=O)CNC(=O)[C@@H](N)Cc1c[nH]cn1)C(=O)NCC(=O)N[C@H](C(=O)N[C@@H](Cc1ccccc1)C(=O)N[C@H](C(=O)N[C@@H](CO)C(=O)N[C@@H](CC(=O)O)C(=O)N[C@H](C(=O)N[C@@H](CO)C(=O)N[C@@H](CO)C(=O)N[C@@H](Cc1ccc(O)cc1)C(=O)N[C@@H](CC(C)C)C(=O)N[C@@H](CCC(=O)O)C(=O)NCC(=O)N[C@@H](CCC(N)=O)C(=O)N[C@@H](C)C(=O)N[C@@H](C)C(=O)N[C@@H](CCCCN)C(=O)N[C@@H](CCC(=O)O)C(=O)N[C@@H](Cc1ccccc1)C(=O)N[C@H](C(=O)N[C@@H](C)C(=O)N[C@@H](Cc1c[nH]c2ccccc12)C(=O)N[C@@H](CC(C)C)C(=O)N[C@H](C(=O)N[C@@H](CCCCN)C(=O)NCC(=O)O)C(C)C)[C@@H](C)CC)C(C)C)[C@@H](C)O)[C@@H](C)O [3166743#1, HGIGTFTSDVSSYLEGQAAKEFIAWLVKG] |  | 0.0538 nM | 
6 | CC[C@H](C)[C@H](NC(=O)[C@H](Cc1ccccc1)NC(=O)[C@H](CCC(=O)O)NC(=O)[C@H](CCCCN)NC(=O)[C@H](C)NC(=O)[C@H](C)NC(=O)[C@H](CCC(N)=O)NC(=O)CNC(=O)[C@H](CCC(=O)O)NC(=O)[C@H](CC(C)C)NC(=O)[C@H](Cc1ccc(O)cc1)NC(=O)[C@H](CO)NC(=O)[C@H](CO)NC(=O)[C@@H](NC(=O)[C@H](CC(=O)O)NC(=O)[C@H](CO)NC(=O)[C@@H](NC(=O)[C@H](Cc1ccccc1)NC(=O)[C@@H](NC(=O)[C@@H](NC(=O)[C@H](CCC(=O)O)NC(=O)CNC(=O)[C@@H](N)Cc1c[nH]cn1)C(C)C)[C@@H](C)O)[C@@H](C)O)C(C)C)C(=O)N[C@@H](C)C(=O)N[C@@H](Cc1c[nH]c2ccccc12)C(=O)N[C@@H](CC(C)C)C(=O)N[C@H](C(=O)N[C@@H](CCCCN)C(=O)NCC(=O)O)C(C)C [3166966#1, HGEVTFTSDVSSYLEGQAAKEFIAWLVKG] |  | 55.3 nM | 
